Test results: patent publication US11932628B2, “Selective small molecule peptidomimetic melanocortin ligands” (REGENTS OF THE UNIVERSITY OF MINNESOTA, priority 2021, dated 2024)

By UniProt entry, the sequences of proteins in these tests, tags left out. Where a name states a change or a piece, a line headed by the entry shows the natural chain unless it says otherwise.
UniProt Q01727: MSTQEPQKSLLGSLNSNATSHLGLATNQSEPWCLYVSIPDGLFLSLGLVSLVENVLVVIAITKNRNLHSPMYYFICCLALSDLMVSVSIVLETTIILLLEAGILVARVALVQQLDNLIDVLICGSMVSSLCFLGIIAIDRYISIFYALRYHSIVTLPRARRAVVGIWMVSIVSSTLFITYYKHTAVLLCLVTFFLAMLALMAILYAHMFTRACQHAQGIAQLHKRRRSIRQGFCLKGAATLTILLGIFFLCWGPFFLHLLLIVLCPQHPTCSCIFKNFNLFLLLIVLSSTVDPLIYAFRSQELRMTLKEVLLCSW

Target: mMC1R (Mus musculus, UniProt Q01727)
Test: cAMP based functional bioassay (CRE/β-galactosidase reporter), agonist activity at mMC1R
Conditions: read-out: mMC1R Mean ± SEM (agonist EC50); HEK-293 cells, mean of three or more experiments

EC50: 13.4 ± 3.9 nM
SMILES: CC(=O)N[C@@H](Cc1c[nH]cn1)C(=O)N[C@H](Cc1ccccc1)C(=O)N[C@@H](CCCNC(=N)N)C(=O)N[C@@H](Cc1c[nH]c2ccccc12)C(N)=O [Ac-His-DPhe-Arg-Trp-NH2, reference compound]
